Data reported in patent US20180311124A1, “CLIMBAZOLE MICROCAPSULE AND HAIR CARE COMPOSITION COMPRISING SURFACTANT AND CLIMBAZOLE” (priority 2015, published 2018).

Description: A number of perfume components, perfume mixtures and oils considered to be safe to use on scalp were screened to evaluate their ability to solubilise climbazole. Because emulsion polymerisation also encapsulates the solvent an efficient solvent is needed to get a high loading of climbazole into a microcapsule.

Eucalyptus oil
ability to solubilise climbazole: failed to solubilise it at any ratio tested
